“And” between values parts separate entries of the source, which are not always exact repeats. Identical values can stand only once. The entries are a selection whose mix differs from that of the whole data set. Results filed as inconclusive are left out. The source made the active and inactive calls. Unless noted, calls come from the whole dose curve; as a rule, active = well fitted curve in the direction sought with a large enough effect in the repeat runs; inconclusive = weak or mixed curves; inactive = no such curve, though single readings can be large; an effect the other way counts as inactive or inconclusive.

The chains behind the UniProt entries cited, without tags or fusion partners.
UniProt P06401, whole entry: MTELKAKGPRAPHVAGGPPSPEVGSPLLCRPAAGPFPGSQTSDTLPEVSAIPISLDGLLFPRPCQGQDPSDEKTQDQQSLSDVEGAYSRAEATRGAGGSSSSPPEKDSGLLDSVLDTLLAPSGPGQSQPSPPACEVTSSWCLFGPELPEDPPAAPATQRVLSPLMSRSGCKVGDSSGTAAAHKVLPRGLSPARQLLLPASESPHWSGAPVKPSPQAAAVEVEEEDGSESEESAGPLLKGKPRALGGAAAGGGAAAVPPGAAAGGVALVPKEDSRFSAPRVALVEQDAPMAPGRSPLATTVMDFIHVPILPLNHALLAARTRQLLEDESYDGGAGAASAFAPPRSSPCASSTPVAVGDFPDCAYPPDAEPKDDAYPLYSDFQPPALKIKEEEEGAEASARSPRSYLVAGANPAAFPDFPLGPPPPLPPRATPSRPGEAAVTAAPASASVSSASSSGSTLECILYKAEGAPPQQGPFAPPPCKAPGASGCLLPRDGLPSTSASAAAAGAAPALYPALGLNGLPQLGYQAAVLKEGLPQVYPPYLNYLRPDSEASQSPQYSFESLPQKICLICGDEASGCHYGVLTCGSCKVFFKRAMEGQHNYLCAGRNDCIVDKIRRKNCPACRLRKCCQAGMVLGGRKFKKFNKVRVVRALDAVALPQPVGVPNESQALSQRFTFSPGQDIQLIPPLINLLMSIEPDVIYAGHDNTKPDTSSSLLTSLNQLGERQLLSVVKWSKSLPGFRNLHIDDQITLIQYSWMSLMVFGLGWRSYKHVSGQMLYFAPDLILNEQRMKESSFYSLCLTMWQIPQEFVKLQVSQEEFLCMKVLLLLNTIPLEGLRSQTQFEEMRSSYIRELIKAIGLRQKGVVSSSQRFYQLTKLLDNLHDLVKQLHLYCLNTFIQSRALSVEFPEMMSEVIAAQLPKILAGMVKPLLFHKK
UniProt P10275, whole entry: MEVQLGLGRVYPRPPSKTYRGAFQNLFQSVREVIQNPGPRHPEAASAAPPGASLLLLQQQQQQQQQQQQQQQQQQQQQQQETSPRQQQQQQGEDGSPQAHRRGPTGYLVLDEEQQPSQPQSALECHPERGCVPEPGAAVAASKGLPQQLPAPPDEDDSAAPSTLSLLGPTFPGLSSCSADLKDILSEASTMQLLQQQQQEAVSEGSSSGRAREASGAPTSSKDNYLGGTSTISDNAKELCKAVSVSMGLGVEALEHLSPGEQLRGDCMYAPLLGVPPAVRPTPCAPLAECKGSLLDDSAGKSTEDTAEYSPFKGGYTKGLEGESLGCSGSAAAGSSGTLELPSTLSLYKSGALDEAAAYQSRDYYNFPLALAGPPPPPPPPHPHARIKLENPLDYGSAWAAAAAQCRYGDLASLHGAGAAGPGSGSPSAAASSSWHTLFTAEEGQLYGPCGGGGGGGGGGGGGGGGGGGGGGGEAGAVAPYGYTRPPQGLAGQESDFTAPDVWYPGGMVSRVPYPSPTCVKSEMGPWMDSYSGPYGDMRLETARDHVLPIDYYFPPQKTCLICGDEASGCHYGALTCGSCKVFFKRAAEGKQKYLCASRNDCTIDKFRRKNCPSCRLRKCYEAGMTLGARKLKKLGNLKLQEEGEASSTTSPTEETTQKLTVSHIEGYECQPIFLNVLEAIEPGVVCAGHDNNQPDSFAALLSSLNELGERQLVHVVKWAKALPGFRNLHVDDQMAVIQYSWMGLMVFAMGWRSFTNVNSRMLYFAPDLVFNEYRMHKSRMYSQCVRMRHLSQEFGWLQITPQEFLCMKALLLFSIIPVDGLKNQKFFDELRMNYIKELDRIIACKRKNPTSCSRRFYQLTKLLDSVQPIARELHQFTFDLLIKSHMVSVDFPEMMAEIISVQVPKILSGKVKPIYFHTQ
UniProt P03372, whole entry: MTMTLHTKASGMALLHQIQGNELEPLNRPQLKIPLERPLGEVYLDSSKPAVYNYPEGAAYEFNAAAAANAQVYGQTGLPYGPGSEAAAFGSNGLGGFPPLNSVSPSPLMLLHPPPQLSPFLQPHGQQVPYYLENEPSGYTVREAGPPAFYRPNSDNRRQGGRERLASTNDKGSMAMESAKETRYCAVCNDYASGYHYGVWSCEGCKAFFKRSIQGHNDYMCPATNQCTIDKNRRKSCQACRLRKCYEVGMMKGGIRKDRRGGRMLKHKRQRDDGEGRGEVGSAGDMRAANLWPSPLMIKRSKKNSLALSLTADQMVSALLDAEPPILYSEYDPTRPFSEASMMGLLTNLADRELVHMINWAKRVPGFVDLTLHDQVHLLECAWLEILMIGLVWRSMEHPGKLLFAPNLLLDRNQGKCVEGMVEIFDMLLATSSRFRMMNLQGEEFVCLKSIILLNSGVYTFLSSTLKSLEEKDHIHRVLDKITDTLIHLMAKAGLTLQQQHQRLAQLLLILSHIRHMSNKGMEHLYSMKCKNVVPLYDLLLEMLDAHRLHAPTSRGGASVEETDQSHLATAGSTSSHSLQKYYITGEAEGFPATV
UniProt P16473, whole entry: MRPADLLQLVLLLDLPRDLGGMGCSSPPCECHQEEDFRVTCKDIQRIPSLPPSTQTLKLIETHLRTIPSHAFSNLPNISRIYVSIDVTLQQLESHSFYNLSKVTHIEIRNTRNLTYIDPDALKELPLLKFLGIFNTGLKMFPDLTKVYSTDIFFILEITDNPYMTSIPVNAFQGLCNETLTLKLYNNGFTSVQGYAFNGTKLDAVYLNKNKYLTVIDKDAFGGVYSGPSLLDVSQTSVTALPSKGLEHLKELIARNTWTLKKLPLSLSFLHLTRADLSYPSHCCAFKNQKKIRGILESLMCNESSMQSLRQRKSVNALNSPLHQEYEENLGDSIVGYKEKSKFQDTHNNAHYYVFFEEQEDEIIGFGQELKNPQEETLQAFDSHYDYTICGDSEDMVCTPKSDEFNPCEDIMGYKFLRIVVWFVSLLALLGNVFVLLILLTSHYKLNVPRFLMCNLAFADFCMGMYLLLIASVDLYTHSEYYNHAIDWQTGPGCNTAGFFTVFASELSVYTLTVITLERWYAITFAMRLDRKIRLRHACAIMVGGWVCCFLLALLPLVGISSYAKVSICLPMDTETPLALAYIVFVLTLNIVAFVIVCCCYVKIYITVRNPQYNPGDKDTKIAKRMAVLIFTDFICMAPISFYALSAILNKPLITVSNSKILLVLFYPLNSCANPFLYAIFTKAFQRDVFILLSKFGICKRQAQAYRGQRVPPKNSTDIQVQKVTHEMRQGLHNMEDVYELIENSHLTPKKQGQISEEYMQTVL
UniProt Q92731, whole entry: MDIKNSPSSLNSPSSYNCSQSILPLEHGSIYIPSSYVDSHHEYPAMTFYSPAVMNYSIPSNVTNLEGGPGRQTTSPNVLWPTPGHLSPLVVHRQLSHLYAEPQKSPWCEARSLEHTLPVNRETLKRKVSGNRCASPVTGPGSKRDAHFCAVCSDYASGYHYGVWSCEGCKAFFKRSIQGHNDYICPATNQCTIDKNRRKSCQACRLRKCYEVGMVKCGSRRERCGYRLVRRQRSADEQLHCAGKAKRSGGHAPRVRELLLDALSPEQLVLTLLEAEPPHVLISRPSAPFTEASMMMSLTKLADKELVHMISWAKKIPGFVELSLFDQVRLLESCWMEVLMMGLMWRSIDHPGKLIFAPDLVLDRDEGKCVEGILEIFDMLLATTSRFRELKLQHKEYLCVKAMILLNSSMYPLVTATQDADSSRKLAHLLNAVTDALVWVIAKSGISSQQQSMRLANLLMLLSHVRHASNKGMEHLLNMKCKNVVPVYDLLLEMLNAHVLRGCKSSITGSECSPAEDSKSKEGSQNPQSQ

The values below come from PubChem BioAssay (Tox21).

The nature of experiment [1]: qHTS assay to identify small molecule agonists of the estrogen receptor beta (ER-beta) signaling pathway - cell viability counter screen (AID 1259380). Note: nearly all actives have a fitted effect of over 30% in size. The procedure, abridged:
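CellTiter-Glo read, 30 min RT, same wells as bla assay; cells ER-beta-UAS-bla HEK293T; 16 hr compound, 37C; medium 2% charcoal-stripped FBS.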
(In general: In qHTS, concentration-response curves come from the screen itself.)

The nature of experiment [2]: qHTS assay to identify small molecule antagonists of the estrogen receptor beta (ER-beta) signaling pathway - cell viability counter screen (AID 1259382).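 Note: HEK293T cells carrying ER-beta-UAS-bla reporter stimulated with estradiol; nearly all actives have a fitted effect of over 55% in size.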 To be noted: ER-beta-UAS-bla HEK293T viability, CellTiter-Glo luminescence, 16 h. The procedure, abridged:
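In this multiplexed counter screen, cells were seeded at 2,000 per well in medium with 2% charcoal-stripped FBS and incubated 6 hr before compound and 1nM final E2 were added. Sixteen hours later, ATP-based luminescence reported viability.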

Experiment [3] is described as follows: qHTS assay to identify small molecule agonists of the estrogen receptor alpha (ER-alpha) signaling pathway in the presence of an antagonist - cell viability counter screen (AID 1259386).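 Note: cells exposed to compounds for 22 h at 37 °C before the viability read; nearly all actives have a fitted effect of over 30% in size.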 The conditions noted are these: VM7Luc4E2 viability, CellTiter-Fluor fluorescence, 22 h. In outline: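 Viability counter screen using VM7Luc4E2 (full-length ER-alpha, four ERE-luciferase). The cells were treated with compounds alongside ICI-182,780 10.0nM for 22hr, and live-cell protease fluorescence was quantified with CellTiter-Fluor.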

For experiment [4], the target named is Progesterone receptor (Homo sapiens) (UniProt P06401). The experiment in a line: qHTS assay to identify small molecule agonists of the progesterone receptor (PR) signaling pathway (AID 1346784; calls by dose curve; note: nearly all actives have a fitted effect of over 30% in size; note: potency is the fitted concentration of half-maximal effect). In outline: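 Beta-lactamase reporter read-out: after 16 hr compound treatment at 37C and a further 2 hr at room temperature with LiveBLAzer B/G FRET substrate, fluorescence was measured in PR-UAS-bla HEK 293T cells grown in 2% charcoal-stripped serum.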

The nature of experiment [5]: qHTS assay to identify small molecule antagonists of the progesterone receptor (PR) signaling pathway - cell viability counter screen (AID 1346798).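 Note: HEK293T PR-UAS-bla cells stimulated with the agonist R5020; nearly all actives have a fitted effect of over 50% in size.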 The conditions noted are these: PR-UAS-bla HEK293T viability, CellTiter-Glo luminescence, 16 h. In outline:
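HEK293T PR-UAS-bla, 2% charcoal-stripped FBS; 4 hr pre-plate; cpd + R5020, 16 h 37C; LiveBLAzer read first; then CellTiter-Glo 30 min RT, luminescence.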

The nature of experiment [6]: qHTS assay to identify small molecule agonists of the progesterone receptor (PR) signaling pathway - cell viability counter screen (AID 1346799; calls by dose curve; note: nearly all actives have a fitted effect of over 45% in size). The procedure, abridged:
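Luminescence from CellTiter-Glo, added after the beta-lactamase FRET read in the same wells, gave cytotoxicity in PR-UAS-bla HEK293T cells treated with compounds for 16 hr at 37C.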

Experiment [7] concerns the target Androgen receptor (Homo sapiens) (UniProt P10275). The experiment in a line: qHTS assay to identify small molecule agonists of the androgen receptor (AR) signaling pathway in the presence of an antagonist (AID 1259381; calls by dose curve; note: nearly all actives have a fitted effect of over 15% in size; note: potency is the fitted concentration of half-maximal effect).
In experiment [8] the target is Estrogen receptor (Homo sapiens) (UniProt P03372). The experiment in a line: qHTS assay to identify small molecule agonists of the estrogen receptor alpha (ER-alpha) signaling pathway in the presence of an antagonist (AID 1259383; calls by dose curve; note: top concentration of the series differs between compounds; nearly all actives have a fitted effect of over 15% in size). The conditions noted are these: VM7Luc4E2 cells, ERE-luciferase, +ICI-182,780, 22 h; at 92.4 µM (top of the series) unless noted.
Experiment [9] concerns the target Thyrotropin receptor (Homo sapiens) (UniProt P16473). The experiment in a line: qHTS assay to identify small molecule antagonists of the thyroid stimulating hormone receptor (TSHR) signaling pathway (AID 1259385; calls by dose curve; note: nearly all actives have a fitted effect of over 20% in size). The conditions noted are these: TSHR-HEK293 cAMP HTRF, TSH-stimulated antagonist mode.
Experiment [10] concerns the target Estrogen receptor beta (Homo sapiens) (UniProt Q92731). In words: qHTS assay to identify small molecule antagonists of the estrogen receptor beta (ER-beta) signaling pathway (AID 1259378; active = well fitted inhibition curve with a large enough effect in the signal ratio in the repeat runs, not every such curve was filed as active; the % refers to the signal ratio). The conditions noted are these: ER-beta-UAS-bla HEK293T, beta-lactamase FRET ratio, 16 h; at 92.4 µM (top of the series) unless noted. The source says:
National Center for Advancing Translational Sciences [NCATS]
NIH Chemical Genomics Center [NCGC]
U.S. Environmental Protection Agency [EPA]
National Institutes of Environmental Health Sciences [NIEHS]
National Toxicology Program [NTP]
U.S. Food and Drug Administration [FDA]
Estrogen receptor (ER), a nuclear hormone receptor, plays an important role in development, metabolic homeostasis and reproduction. Two subtypes of ER, ER-alpha and ER-beta, have similar expression patterns with some uniqueness in both types. Endocrine disrupting chemicals (EDCs) and their interactions with steroid hormone receptors like ER causes disruption of normal endocrine function. To identify the compounds that inhibit ER signaling, an ER-beta-UAS-bla GripTite cell line (Life Technologies, Madison, WI, USA) containing a beta-lactamase reporter gene under the control of an UAS response element was used to screen Tox21 10K compound library.
Tox21 Assay Protocol Summary:
ER-beta-UAS-bla HEK293T cells were dispensed at 2,000 cells/4 uL of assay medium containing 2% charcoal stripped FBS per well into black wall/clear-bottom 1536-well plates using a Multidrop Combi (ThermoFisher Scientific, Waltham, MA) dispenser. After the assay plates were incubated at a 37C and 5% CO2 for 6 hr, 23 nL of compounds dissolved in DMSO, positive controls or DMSO only was transferred to the assay plate by a Pintool station (Kalypsys, San Diego, CA), followed by addition of 1 uL (1nM as final concentration) of 17-beta-estradiol (E2) in assay medium using a BioRAPTR FRD (Flying Reagent Dispenser, Aurora Discovery, San Diego, CA). The plates were incubated at 37C and 5% CO2 for 16 hr. Then 1 uL of LiveBLAzerTM B/G FRET substrate was added using a Flying Reagent Dispenser, the plates were incubated at room temperature for 2 hours, and fluorescence intensity was measured by an Envision plate reader (PerkinElmer, Shelton, CT).

The mark [11] stands for this setting: at 92.4 µM (top of the series) unless noted.
% is set by controls: 0 for no effect and ±100 for the full control effect.

In the case of `O=[N+]([O-])[O-].[NH4+]`, the Potency entry in [1], in experiment [4] and in experiment [6] was “inactive” each time. For the same molecule, the activity change, negative = cytotoxicity in experiment [2] (setting [11]) is inactive: 9.03% and inactive: 3.4%; in experiment [3] (at 92.4 µM (top of the series)) it was inactive: 2.42% and inactive: 0.204%; in experiment [5] (at 92.4 µM (top of the series)), inactive: -20.6% and inactive: 4.3%.
As to `CN(C)CCCl`, the Potency entry in experiment [1], in [7], in experiment [4] and in experiment [6] was “inactive” throughout. In addition, the activity change, negative = cytotoxicity in experiment [2] (setting [11]) is inactive: 1.06%; in experiment [3] (at 92.4 µM (top of the series)) it was inactive: -2.94%; in experiment [5] (at 92.4 µM (top of the series)), inactive: -16.2%. Moreover, in experiment [8], the activation is inactive: -0.998%. In addition, the activity change, negative = inhibition in [9] (at 92.4 µM (top of the series)) was inactive: 0.463%.
For the molecule `OCCSCCO`, the Potency entry in experiment [1], in [4] and in experiment [6] was “inactive” throughout. In addition, the activity change, negative = cytotoxicity in experiment [2] (at 42.5 µM (top of the series)) is inactive: 5.37%; in experiment [2] (at 92.4 µM (top of the series)), inactive: -14.1%; in experiment [3] (at 42.5 µM (top of the series)), inactive: 3.84%; in experiment [3] (at 92.4 µM (top of the series)), inactive: 0.923%; in experiment [5] (at 42.5 µM (top of the series)), inactive: 7.63%; in experiment [5] (at 92.4 µM (top of the series)), inactive: 3.61%. Besides, the values for the activity change, negative = inhibition in experiment [9] (at 42.5 µM (top of the series)) and in experiment [9] (at 92.4 µM (top of the series)) were inactive: -1.96% and inactive: -1.3%, respectively.
For the molecule `Cc1ccc([N+](=O)[O-])cc1[N+](=O)[O-]`, the Potency result in [1], in experiment [4] and in experiment [6] was “inactive” in each case. For the same molecule, the activity change, negative = cytotoxicity was inactive: -4.52% and inactive: 0.093% in [2] (setting [11]); inactive: -0.273% and inactive: 3.15% in experiment [3] (at 92.4 µM (top of the series)); inactive: 0.411% in experiment [5] (at 92.4 µM (top of the series)). Moreover, in experiment [8], the activation is inactive: -2.29% and inactive: 0.864%.
Turning to `Cc1c([N+](=O)[O-])cccc1[N+](=O)[O-]`, the Potency result in experiment [1], in experiment [4] and in experiment [6] was “inactive” each time. In addition, the activity change, negative = cytotoxicity in [2] (setting [11]) was inactive: -1.44% and inactive: 5.26%; in [3] (at 92.4 µM (top of the series)) it was inactive: 2.3% and inactive: 2.01%; in experiment [5] (at 92.4 µM (top of the series)) it was inactive: 28.5%. In experiment [9] (at 92.4 µM (top of the series)), the activity change, negative = inhibition is inactive: 4.87% and inactive: -0.806%.
Regarding `N=C(N)N[N+](=O)[O-]`, the Potency result in experiment [1], in experiment [7], in [4] and in experiment [6] was “inactive” in each case. Further, the activity change, negative = cytotoxicity in experiment [2] (setting [11]) is inactive: 1.42%; in experiment [3] (at 92.4 µM (top of the series)), inactive: -3.75%; in experiment [5] (at 92.4 µM (top of the series)), inactive: 0.201%. In [8], the activation was inactive: -1.5%. Moreover, the activity change, negative = inhibition in experiment [9] (at 92.4 µM (top of the series)) is inactive: 0.236%.
As for `N#CBr`, in [10], the activity, negative = inhibition is inactive: 0.629%. For the same molecule, the Potency result in experiment [1], in [7], in experiment [4] and in experiment [6] was “inactive” each time. For the same molecule, the activity change, negative = cytotoxicity in experiment [2] (setting [11]) was inactive: -0.604%; in experiment [3] (at 92.4 µM (top of the series)), inactive: -0.854%; in experiment [5] (at 92.4 µM (top of the series)), inactive: 13.8%. For the same molecule, the activation in experiment [8] was inactive: 0.0604%. For the same molecule, the activity change, negative = inhibition in [9] (at 92.4 µM (top of the series)) was inactive: 2.75%.
With `[NH4+].[O-][Cl+3]([O-])([O-])[O-]`, the activity, negative = inhibition in experiment [10] was inactive: 3.57%. Further, the Potency entry in experiment [1], in experiment [4] and in [6] was “inactive” throughout. The activity change, negative = cytotoxicity in experiment [2] (setting [11]) is inactive: 9.19% and inactive: 3.33%; in experiment [3] (at 92.4 µM (top of the series)), inactive: -2.02% and inactive: 0.207%; in [5] (at 92.4 µM (top of the series)), inactive: -5.76% and inactive: -15.5%.
Regarding `Cc1cccc([N+](=O)[O-])c1[N+](=O)[O-]`, the Potency result in [1] is “inactive”. Also, the results for the Potency in experiment [7] and in experiment [4] were active: 18.3 µM and active: 2.05 µM, respectively. The activity change, negative = inhibition in [9] (at 42.5 µM (top of the series)) was inactive: 1.33%. Also, in [5] (at 42.5 µM (top of the series)), the activity change, negative = cytotoxicity was inactive: 2.52%.
On to `CCN(CC)CCCl`, for which the Potency entry in experiment [7] and in [4] was “inactive” throughout. In addition, the activity change, negative = cytotoxicity in experiment [2] (setting [11]) was inactive: -15.6%; in experiment [3] (at 92.4 µM (top of the series)), inactive: -15.3%; in experiment [5] (at 92.4 µM (top of the series)), inactive: -9.34%. Further, the activation in experiment [8] is inactive: -0.772%.
